Data: patent US20100029676A1 (priority 2005, published 2010)

Test system: BCR-ABL
Assay type: cell-based

Cc1nc(Nc2ncc(C(=O)Nc3c(C)cccc3Cl)s2)cc(N2CCN(CCO)CC2)n1 [dasatinib, N-(2-chloro-6-methylphenyl)-2-[[6-[4-(2-hydroxyethyl)-1-piperazinyl]-2-methyl-4-pyrimidinyl]amino]-5-thiazolecarboxamide]
Crkl phosphorylation: inhibited in a dose-dependent manner
